In PubChem BioAssay AID485344 (National Center for Advancing Translational Sciences (NCATS), 2010):
Only a part is listed here, and it is no random draw. The source made the active and inactive calls. Cut-off read from the data, not from the text of the source: active = inhibition above about 30%; inactive = below that, where a call was filed.

The chains behind the UniProt entries cited, without tags or fusion partners.
UniProt P14416, whole entry: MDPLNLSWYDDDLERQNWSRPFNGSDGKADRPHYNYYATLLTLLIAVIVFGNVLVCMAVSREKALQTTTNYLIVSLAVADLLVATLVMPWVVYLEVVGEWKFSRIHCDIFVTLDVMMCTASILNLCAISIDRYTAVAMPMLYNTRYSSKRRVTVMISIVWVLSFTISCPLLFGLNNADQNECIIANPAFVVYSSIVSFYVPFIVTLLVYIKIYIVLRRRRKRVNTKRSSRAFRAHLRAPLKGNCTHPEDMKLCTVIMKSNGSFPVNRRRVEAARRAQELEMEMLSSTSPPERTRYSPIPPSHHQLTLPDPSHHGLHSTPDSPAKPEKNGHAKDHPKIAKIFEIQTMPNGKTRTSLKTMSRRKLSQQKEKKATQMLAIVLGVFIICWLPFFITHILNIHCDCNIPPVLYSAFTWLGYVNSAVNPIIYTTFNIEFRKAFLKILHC

Each compound was assayed against D(2) dopamine receptor (Homo sapiens) (UniProt P14416) (assay: HTS Assay for Allosteric Antagonists of the Human D2 Dopamine Receptor: Primary Screen for Antagonists). Conditions: HEK293 TREx D2 cells, calcium flux, dopamine EC80; at 10 µM; active compounds read high.
From the text: NIH Chemical Genomics Center [NCGC] NIH Molecular Libraries Probe Centers Network [MLPCN] MLPCN Grant: NS064831-01 Assay Submitter (PI): David Sibley Dopamine receptors (DARs) are involved in the etiology and/or therapy of a number of neuropsychiatric and endocrine disorders. For instance, all receptor-based antiparkinsonian drugs work via stimulating the D2 DAR subtype whereas all FDA-approved antipsychotic agents are antagonists of this receptor. […] There are three different types of allosteric modulators that we are seeking, two of which will stimulate or augment receptor signaling, allosteric agonists and potentiators, while the third, allosteric antagonists, will attenuate receptor signaling. The present primary screening assay measures compound antagonism after an EC80 addition of dopamine by tracking calcium flux in a […], inducible Hek293 Trex D2 cell line.
Freshly passaged cells are plated in 1536 well black, clear bottom plates at a density of 4000 cells/well in 3 ul of complete media containing 1x tetracycline inducer. After an overnight incubation at 30 C in 5% CO2, cells are loaded with 2 ul of the no wash Calcium Assay Kit (ABD Bioquest) and incubated at room temperature for 30 to 90 minutes. Agonist read: A 10 cycle (1 second/cycle) baseline measurement is taken and then the FDSS online 1536 pintool delivers 23 nl of compound library (as well as dopamine controls) to the plate. The plate is measured for kinetically at 1 cycle/sec for 180 seconds. Following the 180 second read, 1 ul of an EC80 (negative modulation assay) is delivered by an onboard pipette head. Measurements are taken kinetically for an additional 180 seconds.
Note: 0% is about no effect.

| SMILES | inhibition |
| --- | --- |
| CP(=O)(Nc1ccccc1Br)Oc1ccccc1 (stereo unspecified) | inactive: -9.32% |
| COc1ccccc1OP(C)(=O)Nc1ccccc1 (stereo unspecified) | inactive: -12.1% |
| CP(=S)(Nn1cnnc1)Oc1ccccc1 (stereo unspecified) | inactive: -0.325% |
| CP(=O)(Nc1ccccn1)Oc1ccc(Cl)cc1 (stereo unspecified) | inactive: -24.7% |
| CCOC(=O)c1ccc(NP(C)(=O)Oc2ccc(OC)cc2)cc1 (stereo unspecified) | inactive: -24.1% |
| CP(=O)(NC(=O)Nc1ccccc1)Oc1ccccc1 (stereo unspecified) | inactive: 9.02% |
| CCc1ccc(OP(C)(=O)N2CCN(c3ccc([N+](=O)[O-])cc3)CC2)cc1 (stereo unspecified) | inactive: -0.152% |
| Cc1cc(C)cc(OP(C)(=O)Nc2ccc(SC(F)(F)F)cc2)c1 (stereo unspecified) | inactive: -5.19% |
| CP(=O)(Nc1ccc(SC(F)(F)F)cc1)Oc1ccc(Cl)cc1 (stereo unspecified) | inactive: 11.5% |
| Cc1cccc(C)c1OP(C)(=O)Nc1ccc(SC(F)(F)F)cc1 (stereo unspecified) | inactive: 28.6% |
| CP(=O)(Oc1ccccc1)OC(c1ccccc1)C(F)(F)F (stereo unspecified) | inactive: -4% |
| CN(C)C(=O)c1c([N+](=O)[O-])cc([N+](=O)[O-])cc1[N+](=O)[O-] | inactive: 15% |
| COc1ccccc1OP(C)(=O)Nc1ccccc1Br (stereo unspecified) | inactive: 16.5% |
| CC(C)(C)c1ccc(OP(C)(=O)O)cc1 | inactive: 4.35% |
| CP(=O)(Nc1ccc(Cl)cc1)Oc1ccc(F)cc1 (stereo unspecified) | inactive: -5.08% |
| COc1ccccc1OP(C)(=O)Nc1c(C)n(C)n(-c2ccccc2)c1=O (stereo unspecified) | inactive: 8.04% |
| O=C(OCCCN1CCCC1)C(O)(c1ccccc1)C1CCCCC1 (stereo unspecified) | inactive: 16.5% |
| CP(=O)(Oc1ccccc1)N1CCOC1=O (stereo unspecified) | inactive: -9.92% |
| CCc1ccc(OP(C)(=O)Nc2cccnc2)cc1 (stereo unspecified) | inactive: 3.02% |
| CCN(CC)CC(O)COC(=O)C(O)(c1ccccc1)C1CCCCC1 (stereo unspecified) | inactive: -2.89% |
| COc1ccc(OP(C)(=O)Nc2ccc(Br)cc2)cc1 (stereo unspecified) | inactive: -4.43% |
| CCOC(=O)c1ccc(NP(C)(=O)Oc2ccc(Cl)cc2)cc1 (stereo unspecified) | inactive: -5.27% |
| CP(=O)(OC12CC3CC(CC(C3)C1)C2)OC12CC3CC(CC(C3)C1)C2 | inactive: 13.4% |
| CP(=O)(Nc1ccc(Cl)cc1Cl)Oc1ccccc1 (stereo unspecified) | inactive: 1.72% |
| CP(=O)(OCCOc1ccccc1)OCCOc1ccccc1 | inactive: 17.1% |
| Cc1nc2ccc3ccccc3c2o1.O=[N+]([O-])c1cc([N+](=O)[O-])c(O)c([N+](=O)[O-])c1 | inactive: -8.85% |

| SMILES | inhibition |
| --- | --- |
| COc1ccccc1OP(C)(=O)Nc1ccc(C)c(C)c1 (stereo unspecified) | inactive: -9.04% |
| COc1ccc(OP(C)(=O)Nc2ccccc2Br)cc1 (stereo unspecified) | inactive: -1.35% |
| Cc1cc(C)cc(OP(C)(=O)Nc2cccc(C(F)(F)F)c2)c1 (stereo unspecified) | inactive: -15.4% |
| CP(=O)(Nc1ccccn1)Oc1ccccc1 (stereo unspecified) | inactive: -15.3% |
| COc1ccccc1OP(C)(=O)Nc1ccc(C)cc1C (stereo unspecified) | inactive: -13.1% |
| CCc1ccc(OP(C)(=O)O)cc1 | inactive: 4.45% |
| Cc1c(NP(C)(=O)Oc2ccc(C(C)C)cc2)c(=O)n(-c2ccccc2)n1C (stereo unspecified) | inactive: -16.3% |
| O=[N+]([O-])c1cc([N+](=O)[O-])c(Nc2ccccn2)c([N+](=O)[O-])c1 | inactive: -4.17% |
| COc1ccc(OP(C)(=O)Nc2ccccn2)cc1 (stereo unspecified) | inactive: 8.57% |
| CN(C)CCOC(=O)C(O)(c1ccccc1)C1CCCC1 (stereo unspecified) | active: 51.7% |
| COc1ccccc1OP(C)(=O)Nc1ccc(Br)cc1 (stereo unspecified) | inactive: 2% |
| O=C(OCCN1CCN(CCOCc2ccccc2)CC1)C(O)(c1ccccc1)c1ccccc1 | inactive: 1.94% |
| CP(=O)(Nc1ccccc1F)Oc1ccccc1 (stereo unspecified) | inactive: -2.53% |
| CC(C)c1ccc(OP(C)(=O)Nc2ccc(SC(F)(F)F)cc2)cc1 (stereo unspecified) | inactive: 9.76% |
| CP(=O)(Nc1ccccc1)Oc1ccc(F)cc1 (stereo unspecified) | inactive: 22.2% |
| CCCCCOc1ccc(NP(C)(=O)Oc2ccc(Cl)cc2Cl)cc1 (stereo unspecified) | inactive: -19.7% |
| CCOC(=O)c1ccc(NP(C)(=O)Oc2ccc(F)cc2)cc1 (stereo unspecified) | inactive: -3.74% |
| COc1ccc(OP(C)(=O)Nc2ccc(SC(F)(F)F)cc2)cc1 (stereo unspecified) | inactive: 7.99% |
| O=[N+]([O-])c1ccc(OP2(=O)COCCO2)cc1 (stereo unspecified) | inactive: 5.69% |
| Cc1cc(-c2cccc3ccccc23)c(C)cn1.O=[N+]([O-])c1cc([N+](=O)[O-])c(O)c([N+](=O)[O-])c1 | inactive: -6.19% |
| CN(C)CCOC(=O)C(O)(c1ccccc1)C1CCCCC1 (stereo unspecified) | active: 34% |
| COc1ccc(NP(C)(=O)Oc2ccccc2OC)cc1 (stereo unspecified) | inactive: -10.1% |
| COc1ccc(OP(C)(=O)Nc2cccc(Br)c2)cc1 (stereo unspecified) | inactive: -9.37% |
| Cc1ccccc1NP(C)(=O)Nc1ccccc1C | inactive: -19.9% |
| CP(=O)(Nc1ccc(SC(F)(F)F)cc1)Oc1ccc(F)cc1 (stereo unspecified) | inactive: -0.0413% |
